Values of other authors, collected in US20210346383A1, “COMPOUNDS, COMPOSITIONS AND METHODS FOR TREATING OR PREVENTING HER-DRIVEN CANCERS” (Rain Therapeutics Inc., priority 2018, published 2021).

Amino acid sequences for entries named in this document (tags omitted). Residues count along the entry.
UniProt P00533, 25-1210 T790M/C797S/L858R: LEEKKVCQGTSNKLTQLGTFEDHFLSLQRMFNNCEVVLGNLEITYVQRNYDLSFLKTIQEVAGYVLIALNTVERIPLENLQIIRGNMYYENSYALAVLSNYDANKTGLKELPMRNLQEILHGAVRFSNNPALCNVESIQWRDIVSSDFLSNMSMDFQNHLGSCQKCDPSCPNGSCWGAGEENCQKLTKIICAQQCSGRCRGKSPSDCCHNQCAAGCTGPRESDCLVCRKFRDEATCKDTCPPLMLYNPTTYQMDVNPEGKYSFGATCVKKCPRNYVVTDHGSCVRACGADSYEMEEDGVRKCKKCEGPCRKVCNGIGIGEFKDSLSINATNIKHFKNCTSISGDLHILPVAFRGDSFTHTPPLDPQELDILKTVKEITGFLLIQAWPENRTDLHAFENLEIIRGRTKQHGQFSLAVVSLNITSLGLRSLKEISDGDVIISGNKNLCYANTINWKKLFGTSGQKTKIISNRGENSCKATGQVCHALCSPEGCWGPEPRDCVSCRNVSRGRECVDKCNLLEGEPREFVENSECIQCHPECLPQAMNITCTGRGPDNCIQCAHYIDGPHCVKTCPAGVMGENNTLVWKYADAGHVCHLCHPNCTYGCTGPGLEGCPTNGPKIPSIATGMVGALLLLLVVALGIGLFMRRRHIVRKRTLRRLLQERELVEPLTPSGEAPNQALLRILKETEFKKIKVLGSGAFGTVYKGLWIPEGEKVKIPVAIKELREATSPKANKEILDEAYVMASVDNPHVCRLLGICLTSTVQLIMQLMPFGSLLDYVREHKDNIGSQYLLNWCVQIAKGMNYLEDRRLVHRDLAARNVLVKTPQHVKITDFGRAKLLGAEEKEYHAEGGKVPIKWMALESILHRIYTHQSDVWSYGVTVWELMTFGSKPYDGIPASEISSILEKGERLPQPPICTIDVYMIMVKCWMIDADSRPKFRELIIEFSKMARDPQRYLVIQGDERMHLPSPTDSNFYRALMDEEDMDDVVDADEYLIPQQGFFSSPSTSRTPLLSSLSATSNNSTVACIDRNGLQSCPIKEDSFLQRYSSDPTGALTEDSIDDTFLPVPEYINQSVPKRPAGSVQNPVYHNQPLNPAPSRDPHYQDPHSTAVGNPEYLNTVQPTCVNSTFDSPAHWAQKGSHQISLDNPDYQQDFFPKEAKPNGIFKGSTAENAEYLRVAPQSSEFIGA
UniProt P00533, 25-1210 T790M/L858R: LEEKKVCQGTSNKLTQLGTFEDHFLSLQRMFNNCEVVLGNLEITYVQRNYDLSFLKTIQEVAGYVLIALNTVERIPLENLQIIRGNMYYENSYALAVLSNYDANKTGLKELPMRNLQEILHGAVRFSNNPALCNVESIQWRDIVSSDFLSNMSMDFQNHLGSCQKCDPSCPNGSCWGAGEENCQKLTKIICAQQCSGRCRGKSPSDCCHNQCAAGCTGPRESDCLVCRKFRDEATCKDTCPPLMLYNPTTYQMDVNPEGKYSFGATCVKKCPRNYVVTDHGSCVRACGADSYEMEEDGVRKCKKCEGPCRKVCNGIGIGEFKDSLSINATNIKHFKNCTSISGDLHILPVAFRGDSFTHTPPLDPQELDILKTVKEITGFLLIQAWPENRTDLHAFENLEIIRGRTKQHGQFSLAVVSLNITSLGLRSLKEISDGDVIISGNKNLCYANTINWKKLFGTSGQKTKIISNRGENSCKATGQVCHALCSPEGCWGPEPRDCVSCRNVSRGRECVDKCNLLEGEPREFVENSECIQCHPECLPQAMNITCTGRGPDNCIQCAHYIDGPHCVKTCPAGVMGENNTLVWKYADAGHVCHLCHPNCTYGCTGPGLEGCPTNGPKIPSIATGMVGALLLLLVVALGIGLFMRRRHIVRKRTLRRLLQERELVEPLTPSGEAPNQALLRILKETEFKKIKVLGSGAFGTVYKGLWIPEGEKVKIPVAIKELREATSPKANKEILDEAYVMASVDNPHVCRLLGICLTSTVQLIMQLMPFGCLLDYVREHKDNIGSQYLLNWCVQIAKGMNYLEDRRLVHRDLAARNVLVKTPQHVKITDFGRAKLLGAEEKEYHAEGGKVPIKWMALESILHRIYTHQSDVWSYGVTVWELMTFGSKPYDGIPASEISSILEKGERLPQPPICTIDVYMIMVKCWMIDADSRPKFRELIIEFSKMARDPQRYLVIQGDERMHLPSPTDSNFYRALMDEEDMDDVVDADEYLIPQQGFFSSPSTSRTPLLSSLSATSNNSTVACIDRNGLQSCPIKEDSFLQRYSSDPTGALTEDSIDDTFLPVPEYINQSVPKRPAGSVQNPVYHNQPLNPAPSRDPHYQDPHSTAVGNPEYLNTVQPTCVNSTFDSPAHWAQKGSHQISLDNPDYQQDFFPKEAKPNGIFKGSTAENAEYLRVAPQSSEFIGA

Columns and labels:
EGFR (L858R/T790M/C797S) = EGFR (L858R/T790M/C797S) (Homo sapiens, UniProt P00533, C797S/L858R/T790M); settings: read-out: IC50, published data; cited from earlier work
EGFR (L858R/T790M) = EGFR (L858R/T790M) (Homo sapiens, UniProt P00533, L858R/T790M); settings: read-out: IC50, published data; cited from earlier work

SMILES: Cc1cc(C(=O)Nc2nc3cccc(Cl)c3n2[C@@H]2CCCCN(C(=O)/C=C/CN(C)C)C2)ccn1 [EGF816]
- IC50 (EGFR (L858R/T790M/C797S)): 196 nM
- IC50 (EGFR (L858R/T790M)): < 1 nM
